For data set [1], the target named is BTK(C481S) kinase (Homo sapiens, UniProt Q06187, C481S). The experiment in a line: Inhibitory activity against BTK(C481S) kinase. As to conditions: read-out: BTK(C481S) kinase inhibition IC50(nM ).
Data set [2] has as its target BTK(WT) kinase (Homo sapiens, UniProt Q06187). The data set can be described thus: Inhibitory activity against BTK(WT) kinase. The following applies: read-out: BTK(WT) kinase inhibition IC50(nM ).
Data set [3] is described as follows: In vivo pharmacokinetic study in mice. As to conditions: ICR mice, 5mg/kg. The method, then:
ICR mice weighing 20-25 g were randomly grouped after 3-5 days of acclimatization, with 6 mice in each intravenous injection group and 3 mice in each intragastric administration group. The mice were intragastrically (IG) and intravenously (IV) administered the compound solutions of the present application at a dose of 5 mg/kg. Blood collection time points for intragastric administration were 30 min, 2 h, 8 h, and 24 h, and blood collection time points for intravenous injection were 0.083 h (5 min), 0.25 h (15 min), 1 h, 2 h, 4 h, 8 h, and 24 h. Blood was collected from the orbit to prepare plasma samples to be tested. 30 µL of each of the plasma samples to be tested and a standard curve sample were taken, and an acetonitrile solution containing an internal standard was added. Supernatants were obtained by protein precipitation, diluted, and then assayed by LC/MS/MS.

By UniProt entry, the sequences of proteins in these tests, tags left out. Where a name states a change or a piece, a line headed by the entry shows the natural chain unless it says otherwise.
UniProt Q06187, whole entry: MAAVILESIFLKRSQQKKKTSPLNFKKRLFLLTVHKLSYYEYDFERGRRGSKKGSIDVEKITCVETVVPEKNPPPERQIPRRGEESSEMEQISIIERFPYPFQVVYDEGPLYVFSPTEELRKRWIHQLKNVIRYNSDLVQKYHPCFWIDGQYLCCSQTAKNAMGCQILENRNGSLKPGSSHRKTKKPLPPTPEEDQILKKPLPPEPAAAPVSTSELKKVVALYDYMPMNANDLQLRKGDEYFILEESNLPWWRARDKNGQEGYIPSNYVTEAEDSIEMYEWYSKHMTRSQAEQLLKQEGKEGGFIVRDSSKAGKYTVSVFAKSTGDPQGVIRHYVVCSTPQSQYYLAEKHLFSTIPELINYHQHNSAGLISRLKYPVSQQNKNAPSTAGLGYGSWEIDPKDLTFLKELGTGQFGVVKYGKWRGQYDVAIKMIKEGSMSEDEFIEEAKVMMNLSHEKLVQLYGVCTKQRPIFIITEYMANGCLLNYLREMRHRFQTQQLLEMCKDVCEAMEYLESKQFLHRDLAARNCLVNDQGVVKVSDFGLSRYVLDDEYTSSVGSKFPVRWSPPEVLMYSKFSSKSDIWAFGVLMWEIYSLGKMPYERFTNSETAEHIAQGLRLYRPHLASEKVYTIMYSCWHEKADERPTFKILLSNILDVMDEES
UniProt Q06187, whole entry C481S: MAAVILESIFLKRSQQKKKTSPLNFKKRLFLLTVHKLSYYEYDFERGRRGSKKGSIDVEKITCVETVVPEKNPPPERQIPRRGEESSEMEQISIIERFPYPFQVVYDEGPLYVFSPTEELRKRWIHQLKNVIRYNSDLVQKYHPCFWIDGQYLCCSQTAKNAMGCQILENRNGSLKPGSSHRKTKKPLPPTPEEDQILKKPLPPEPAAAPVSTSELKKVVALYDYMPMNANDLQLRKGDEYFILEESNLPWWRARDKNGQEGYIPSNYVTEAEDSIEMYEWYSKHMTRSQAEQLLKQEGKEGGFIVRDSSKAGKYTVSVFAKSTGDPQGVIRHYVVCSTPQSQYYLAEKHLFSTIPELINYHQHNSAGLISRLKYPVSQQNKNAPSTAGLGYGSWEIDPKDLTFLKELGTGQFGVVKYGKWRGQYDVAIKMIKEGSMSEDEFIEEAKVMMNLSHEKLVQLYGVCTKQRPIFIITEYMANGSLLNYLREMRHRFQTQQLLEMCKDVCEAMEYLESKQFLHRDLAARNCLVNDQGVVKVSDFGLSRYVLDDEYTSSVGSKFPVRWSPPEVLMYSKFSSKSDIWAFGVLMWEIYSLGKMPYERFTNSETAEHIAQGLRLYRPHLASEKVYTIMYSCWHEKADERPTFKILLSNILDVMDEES

The subject of data set [4] is OCI-LY10 cells. The experiment in a line: Pharmacodynamic evaluation in OCI-LY10 mouse subcutaneous xenograft tumor model. The following applies: day 23 of administration, intragastric once daily, 20 mpk or 40 mpk. The method, then:
SPF-grade female NOD-SCID mice (source: Shanghai Lingchang Biotech Co., Ltd.) were subcutaneously inoculated at the right axilla with OCI-LY10 cells at 1 × 10^7 cells/mouse. When the mean tumor volume reached about 180 mm^3, the animals were grouped.
The day of grouping was defined as day 0, and intragastric administration was performed once daily from day 1 at a dose of 20 mpk or 40 mpk. The tumor volume was measured twice every week, and meanwhile, the mice were weighed, and the data were recorded. The general behavior of the mice was observed and recorded every day. After the experiment was completed, the tumors were extracted, weighed, and photographed.
The detection parameters and the calculation formulas are as follows: Tumor volume TV (mm^3) = 1/2 × (a×b^2), [formula] where a represents the long diameter of the tumor, and b represents the short diameter of the tumor. Relative tumor volume RTV = TVt /TV0 , [formula] where TV0 represents the tumor volume on day 0, and TVt represents the tumor volume at each measurement. Relative tumor proliferation rate T/C (%) = (TRTV/CRTV) × 100%, [formula] where TRTV represents RTV of the treatment group, and CRTV represents RTV of the vehicle control group. Tumor volume inhibition rate TGI (TV)(%), TGI (%) = [1−(T−T0)/(C−0)] × 100%, [formula] where T represents the mean tumor volume of each treatment group; T0 represents the mean tumor volume of each treatment group on d0; C represents the mean tumor volume of the control group; C0 represents the mean tumor volume of the control group on d0. Tumor weight inhibition rate TGI (TW)(%), TGI (%) = (1−TWt/TWc) × 100%, [formula] where TWt represents the tumor weight of each treatment group; TWc represents the tumor weight of the control group. Weight change rate WCR (%) = (Wtt−Wt0)/Wt0 × 100%, [formula] where Wt0 represents the body weight of the mouse on day 0, and Wtt represents the body weight of the mouse at each measurement.

For data set [5], the system named is OCI-LY10 cells. The experiment in a line: Inhibitory activity against OCI-LY10 cell proliferation (CCK-8). As to conditions: 72 h incubation.

From patent EP4825855A1, “COMPOUND CONTAINING PYRAZOLE RING AND BICYCLIC HETEROARYL GROUP, PHARMACEUTICAL COMPOSITION THEREOF AND USE THEREOF” (dated 2026) come the findings set out here.

Each structure is given as a SMILES string. Some results are limits rather than exact numbers.

Take `NC(=O)c1c(Nc2ccc(N3CCN(C4CC4)CC3)cn2)cnn1-c1ccc(CNC(=O)c2cc(F)cc3cccnc23)cc1`: the half-inhibitory concentration (IC50) in data set [1] is < 10 nM. In addition, the IC50 in data set [2] is < 10 nM. In data set [3] (IG), the “AUC(0-t)” value is 4275 ng·h/mL and the Cmax stood at 1874 ng/mL. Further, in data set [3] (IV), the area under the curve AUC(0-t) is 9322 ng·h/mL, the CL stood at 8.92 mL/min/kg, the T1/2 amounted to 3.17 h and the Vss came to 1.12 L/kg. Also, in data set [4], the “tumor volume inhibition rates” value is “greater than 95%” and the “tumor weight inhibition rates” value is “greater than 92%”.
In the case of `NC(=O)c1c(Nc2ccc(N3CCN(C4COC4)CC3)c(C(O)C(F)(F)F)n2)cnn1-c1ccc(CNC(=O)c2cc(F)cc3cccnc23)cc1` (single isomer, unassigned), the IC50 in data set [5] is < 10 nM. Moreover, in data set [3] (IG), the “AUC(0-t)” value is 2934 ng·h/mL and the highest concentration (Cmax) amounted to 701 ng/mL. In addition, in data set [3] (IV), the “AUC(0-t)” value was found to be 4705 ng·h/mL, the CL was found to be 17.5 mL/min/kg, the T1/2 is reported as 4.24 h and the Vss worked out at 3.015 L/kg. In data set [4], the “tumor volume inhibition rates” value is “greater than 95%” and the “tumor weight inhibition rates” value was “greater than 92%”.
`COc1ccc(F)c2ccnc(NCc3ccc(-n4ncc(Nc5ccc(N6CCN(C7COC7)CC6)c(C(O)C(F)(F)F)n5)c4C(N)=O)cc3)c12` (single isomer, unassigned): in data set [1], the concentration for half-maximal inhibition (IC50) was < 10 nM. Also, the IC50 in data set [2] was < 10 nM. Moreover, in data set [3] (IG), the “AUC(0-t)” value is 10930 ng·h/mL and the Cmax turned out to be 707 ng/mL. Besides, in data set [3] (IV), the “AUC(0-t)” value was 13855 ng·h/mL, the CL stood at 5.08 mL/min/kg, the T1/2 was determined as 9.54 h and the Vss turned out to be 3.779 L/kg. Further, in data set [4], the “tumor volume inhibition rates” value is listed as “greater than 95%” and the “tumor weight inhibition rates” value was “greater than 92%”.
